# Like-named read-outs stand apart in the source and are kept apart here.
# By UniProt entry, the sequences of proteins in these tests, tags left out. Residues count along the entry.
# UniProt P35869, 11-848 limits assumed: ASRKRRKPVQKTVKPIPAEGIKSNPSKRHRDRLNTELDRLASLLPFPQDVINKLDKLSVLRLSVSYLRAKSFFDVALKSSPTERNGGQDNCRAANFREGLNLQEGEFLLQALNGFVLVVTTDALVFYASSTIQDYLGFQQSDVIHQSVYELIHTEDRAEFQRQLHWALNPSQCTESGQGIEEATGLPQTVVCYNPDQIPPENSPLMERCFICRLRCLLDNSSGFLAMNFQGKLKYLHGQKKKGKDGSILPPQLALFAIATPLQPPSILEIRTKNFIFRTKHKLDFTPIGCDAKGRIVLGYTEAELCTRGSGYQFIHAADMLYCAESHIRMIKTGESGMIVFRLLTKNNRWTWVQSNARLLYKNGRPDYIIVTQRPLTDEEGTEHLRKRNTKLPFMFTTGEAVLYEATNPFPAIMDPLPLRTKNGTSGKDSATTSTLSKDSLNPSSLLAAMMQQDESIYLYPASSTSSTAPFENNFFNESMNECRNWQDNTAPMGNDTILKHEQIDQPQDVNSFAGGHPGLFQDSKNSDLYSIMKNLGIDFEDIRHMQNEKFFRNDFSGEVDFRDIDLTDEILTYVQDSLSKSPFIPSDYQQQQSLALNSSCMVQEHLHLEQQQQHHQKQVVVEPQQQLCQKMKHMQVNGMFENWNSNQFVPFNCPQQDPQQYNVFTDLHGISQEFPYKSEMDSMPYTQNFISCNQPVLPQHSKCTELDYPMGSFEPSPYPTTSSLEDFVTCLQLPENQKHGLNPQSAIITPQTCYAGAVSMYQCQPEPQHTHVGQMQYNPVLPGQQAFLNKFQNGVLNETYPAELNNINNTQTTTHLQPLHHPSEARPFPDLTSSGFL
# UniProt P30561, whole entry P471L/N533S/M589L: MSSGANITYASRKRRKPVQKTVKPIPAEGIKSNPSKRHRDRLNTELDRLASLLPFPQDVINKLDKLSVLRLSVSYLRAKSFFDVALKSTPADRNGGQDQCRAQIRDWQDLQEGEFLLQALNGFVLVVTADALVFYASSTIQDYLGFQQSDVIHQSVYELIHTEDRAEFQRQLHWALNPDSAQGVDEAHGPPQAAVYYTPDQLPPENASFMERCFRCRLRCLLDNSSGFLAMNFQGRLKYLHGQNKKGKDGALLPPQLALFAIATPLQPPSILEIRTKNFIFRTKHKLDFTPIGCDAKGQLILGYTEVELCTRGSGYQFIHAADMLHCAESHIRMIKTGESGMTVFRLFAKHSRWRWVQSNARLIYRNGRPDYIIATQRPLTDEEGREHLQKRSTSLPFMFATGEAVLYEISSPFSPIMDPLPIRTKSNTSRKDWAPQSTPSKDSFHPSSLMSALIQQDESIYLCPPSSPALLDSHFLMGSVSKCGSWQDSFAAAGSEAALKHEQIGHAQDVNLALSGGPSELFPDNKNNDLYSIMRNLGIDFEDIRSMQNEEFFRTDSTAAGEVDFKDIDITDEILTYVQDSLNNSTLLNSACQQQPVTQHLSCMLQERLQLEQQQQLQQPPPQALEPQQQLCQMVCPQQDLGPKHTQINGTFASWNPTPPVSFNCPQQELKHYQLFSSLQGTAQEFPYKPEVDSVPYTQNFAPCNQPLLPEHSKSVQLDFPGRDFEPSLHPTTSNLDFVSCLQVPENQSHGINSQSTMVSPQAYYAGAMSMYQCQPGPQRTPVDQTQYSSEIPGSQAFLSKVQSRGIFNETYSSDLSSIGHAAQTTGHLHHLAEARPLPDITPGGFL
# Tests used:
# [1] = biological target: AHR (Homo sapiens, UniProt P35869); experiment: In vitro assay 1: antagonism in human cell line (AHR transactivation, firefly luciferase reporter, kynurenic acid prestimulated); assay type: cell-based
# Experimental: Examples were tested in selected biological assays one or more times. When tested more than once, data are reported as either average values or as median values, wherein • the average value, also referred to as the arithmetic mean value, represents the sum of the values obtained divided by the number of times tested, and • the median value represents the middle number of the group of values when ranked in ascending or descending order. If the number of values in the data set is odd, the median is the middle value. If the number of values in the data set is even, the median is the arithmetic mean of the two middle values.
# Transactivation assays were carried out in U87 MG glioblastoma cells (ATCC #HTB-14) endogenously expressing AHR. In addition the cells were stably transfected with an AHR inducible firefly luciferase reporter gene construct that carried AHR-binding sites (DRE) in its promoter and a renilla reporter gene construct with constitutively active promoter. Kynurenic acid is an endogenous AHR activating ligand and was used to prestimulate test cells prior to testing the antagonistic properties of compounds.
# As positive inhibition control cells supplemented with 150 μM kynurenic acid were incubated in presence of 5 μM Staurosporin. Normalization was done by positive and negative controls.
# Firefly luciferase and Renilla activity was determined by the DualGlo Luciferase Assay System (Promega, #2920). Renilla activity was used to assess toxic effects of compounds.
# [2] = biological target: AHR (Mus musculus, UniProt P30561); experiment: In vitro assay 3: antagonism in mouse cell line (AHR transactivation, firefly luciferase reporter, kynurenic acid prestimulated)
# [3] = read-out: AHR Antagonism Human IC50, firefly luciferase reporter
# [4] = read-out: AHR Antagonism Mouse IC50, Hepa 1c1c7 cells, 200 μM kynurenic acid, 20 hours, firefly luciferase reporter
Compound,"IC50 [1, 3]","IC50 [2, 4]",IC50 ([1]; read-out: AHR Antagonism Human IC50),"IC50 ([2]; read-out: AHR Antagonism Mouse IC50, mouse Hepa 1c1c7 cells, 200 μM kynurenic acid, 20 hours)"
COc1ccc(-c2nc3c4cccc(Br)c4nc(N[C@H](C)C(=O)NCC(C)(C)O)n3n2)cc1,1.13 nM,1.2 nM,–,–
C[C@@H](Nc1nc2c(Br)cccc2c2nc(-c3cnn(C)c3)nn12)C(=O)NCC(C)(C)O,60.6 nM,47.2 nM,–,–
C[C@@H](Nc1nc2c(C(F)(F)F)cccc2c2nc(-c3cnn(C)c3)nn12)C(=O)NCCN1CCN(C)CC1,192 nM,272 nM,–,–
Cc1cc(-c2nc3c4ccccc4nc(N[C@@H]4CCCCNC4=O)n3n2)c(C#N)n1C,–,–,10 nM,13.1 nM
O=C1NCCNC[C@@H]1Nc1nc2c(C(F)(F)F)cccc2c2nc(-c3cnn(C4CC4)c3)nn12,19.4 nM,36.3 nM,–,–
